Measured values from ChEMBL document CHEMBL1629538, “Novel helix-constrained nociceptin derivatives are potent agonists and antagonists of ERK phosphorylation and thermal analgesia in mice” (J Med Chem, 2010).
pIC50: −log10 of the molar value. Active and inactive are the calls of the source.

Amino acid sequences for entries named in this document (tags omitted). A change or cut given only in a name is not applied to a line headed by its entry.
UniProt P35377: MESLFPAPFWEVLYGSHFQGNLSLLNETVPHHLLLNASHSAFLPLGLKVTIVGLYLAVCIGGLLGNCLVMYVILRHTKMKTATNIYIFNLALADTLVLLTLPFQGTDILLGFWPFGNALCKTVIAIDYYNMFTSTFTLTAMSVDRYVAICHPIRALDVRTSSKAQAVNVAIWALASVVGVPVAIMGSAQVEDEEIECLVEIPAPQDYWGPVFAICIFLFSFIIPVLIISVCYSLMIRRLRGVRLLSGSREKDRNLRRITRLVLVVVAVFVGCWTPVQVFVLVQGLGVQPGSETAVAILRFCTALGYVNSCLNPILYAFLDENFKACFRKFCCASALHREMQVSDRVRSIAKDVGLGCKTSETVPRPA

Tests used:
[1] = target: Nociceptin receptor (Mus musculus) (UniProt P35377); assay: Agonist activity at NOR in mouse Neuro-2a cells assessed as stimulation of ERK phosphorylation after 35 mins post dose by Alphascreen Surefire assay relative to control
Mus musculus [2] = assay: Antinociceptive activity in C57BL/6 mouse assessed as increase in paw withdrawal latency administered through intraplanatar route by hot plate test; format: functional
Mus musculus [3] = assay: Antinociceptive activity in C57BL/6 mouse assessed as increase in paw withdrawal latency administered through intraplanatar route measured 15 mins post dose by hot plate test; format: functional, organism-based
Mus musculus [4] = assay: Antinociceptive activity in C57BL/6 mouse assessed as increase in paw withdrawal latency administered through intraplanatar route by hot plate test co-administered with NOR antagonist compound 16; format: functional, organism-based
Summary of the method: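 Male C57BL/6 mice were given an intraplantar co-injection into each front paw of NOR antagonist (200 nmol) with agonist (200 pmol) in saline. Front-paw withdrawal latency on a 53 °C hot plate was measured against baseline, at 5-60 min post-injection, with a 30 s cutoff. Results are % change from baseline, mean ± SEM.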

Mus musculus [5] = assay: Antinociceptive activity in C57BL/6 mouse assessed as maximal increase in paw withdrawal latency administered through intraplanatar route by hot plate test relative to untreated control; format: functional
Mus musculus [6] = assay: Antinociceptive activity in C57BL/6 mouse assessed as increase in paw withdrawal latency administered through intraplanatar route measured 60 mins post dose by hot plate test; format: functional, organism-based
Mus musculus [7] = assay: Antinociceptive activity in C57BL/6 mouse assessed as increase in paw withdrawal latency administered through intraplanatar route measured 5 mins post dose by hot plate test; format: functional, organism-based
Nociceptin receptor = Nociceptin receptor (Mus musculus, UniProt P35377); assay: Antagonist activity at NOR in mouse Neuro-2a cells assessed as inhibition of nociceptin-induced ERK phosphorylation administered for 15 mins before nociceptin challenge by Alphascreen Surefire assay; format: functional, cell-based; conditions: for IC50: read-out: pIC50 (converted)
[8] = target: Nociceptin receptor (Mus musculus) (UniProt P35377); assay: Antagonist activity at NOR in mouse Neuro-2a cells assessed as inhibition of nociceptin-induced ERK phosphorylation at 100 nM administered for 15 mins before nociceptin challenge by Alphascreen Surefire assay; format: functional, cell-based

Structure (SMILES) | Emax [1] | Activity (Mus musculus [2]) | ED50 (Mus musculus [2]) | other results
C[C@H](NC(=O)[C@H](CCC(N)=O)NC(=O)[C@H](CC(N)=O)NC(=O)[C@H](C)NC(=O)[C@H](C)NC(=O)[C@H](CCCCN)NC(=O)[C@H](CCCNC(=N)N)NC(=O)[C@H](C)NC(=O)[C@H](CO)NC(=O)[C@H](CCCCN)NC(=O)[C@H](CCCNC(=N)N)NC(=O)[C@H](C)NC(=O)CNC(=O)[C@@H](NC(=O)[C@H](Cc1ccccc1)NC(=O)CNC(=O)CNC(=O)[C@@H](N)Cc1ccccc1)[C@@H](C)O)C(N)=O | 93% | – | – | –
CC(C)C[C@H](NC(=O)[C@H](CCCCN)NC(=O)[C@H](CCCNC(=N)N)NC(=O)[C@H](C)NC(=O)[C@H](CO)NC(=O)[C@H](CCCCN)NC(=O)[C@H](CCCNC(=N)N)NC(=O)[C@H](C)NC(=O)CNC(=O)[C@@H](NC(=O)[C@H](Cc1ccc(F)cc1)NC(=O)CNC(=O)CNC(=O)[C@@H](N)Cc1ccccc1)[C@@H](C)O)C(=O)N[C@@H](CCCCN)C(=O)N[C@@H](CC(N)=O)C(=O)N[C@@H](CCC(N)=O)C(N)=O | 108% | Dose-dependent effect | 161 pmol | Activity (Mus musculus [3]): inactive
CC(C)C[C@@H]1NC(=O)[C@H](CCCCN)NC(=O)[C@H](CCCNC(=N)N)NC(=O)[C@@H](NC(=O)[C@@H]2CC(=O)NCCCC[C@H](NC(=O)[C@@H](NC(=O)[C@H](Cc3ccccc3)NC(=O)CNC(=O)CNC(=O)[C@@H](N)Cc3ccccc3)[C@@H](C)O)C(=O)N[C@@H](C)C(=O)N[C@@H](CCCNC(=N)N)C(=O)N[C@@H](CCCCN)C(=O)N2)CCCCNC(=O)C[C@@H](C(N)=O)NC1=O | 96% | – | – | –
C[C@@H](O)[C@H](NC(=O)[C@H](Cc1ccc(F)cc1)NC(=O)CNC(=O)CNC(=O)[C@@H](N)Cc1ccccc1)C(=O)NCC(=O)N[C@H]1CCCCNC(=O)C[C@@H](C(=O)N[C@@H](CCCNC(=N)N)C(=O)N[C@@H](CCCCN)C(=O)N[C@H]2CCCCNC(=O)C[C@@H](C(N)=O)NC(=O)[C@H](CCC(N)=O)NC(=O)[C@H](CC(N)=O)NC(=O)[C@H](CCCCN)NC2=O)NC(=O)[C@H](CO)NC(=O)[C@H](CCCCN)NC(=O)[C@H](CCCNC(=N)N)NC1=O | 101% | Dose-dependent effect | 70 pmol | Activity (Mus musculus [4]): inactive; ED100 (Mus musculus [2]): 200 pmol; Emax (Mus musculus [5]): 120%; Activity (Mus musculus [6]): Active
CC(C)C[C@H](NC(=O)[C@H](CCCCN)NC(=O)[C@H](CCCNC(=N)N)NC(=O)[C@H](C)NC(=O)[C@H](CO)NC(=O)[C@H](CCCCN)NC(=O)[C@H](CCCNC(=N)N)NC(=O)[C@H](C)NC(=O)CNC(=O)[C@@H](NC(=O)[C@H](Cc1ccccc1)NC(=O)CNC(=O)CNC(=O)[C@@H](N)Cc1ccccc1)[C@@H](C)O)C(=O)N[C@@H](C)C(=O)N[C@@H](CC(N)=O)C(=O)N[C@@H](CCC(N)=O)C(N)=O [NOCICEPTIN-NH2] | 103% | Dose-dependent effect | 184 pmol | Activity (Mus musculus [7]): inactive; Emax (Mus musculus [5]): 120%
C[C@H](NC(=O)CNC(=O)[C@@H](NC(=O)[C@H](Cc1ccccc1)NC(=O)CNC(=O)CNC(=O)CNCc1ccccc1)[C@@H](C)O)C(=O)N[C@@H](CCCN=C(N)N)C(=O)N[C@@H](CCCCN)C(=O)N[C@@H](CO)C(=O)N[C@@H](C)C(=O)N[C@@H](CCCN=C(N)N)C(=O)N[C@@H](CCCCN)C(N)=O | – | – | – | pIC50 (Nociceptin receptor; neuro-2a, read-out: IC50): 6.12
C[C@@H]1NC(=O)[C@@H](NC(=O)[C@H](CCCCN)NC(=O)[C@H](CCCNC(=N)N)NC(=O)[C@@H]2CC(=O)NCCCC[C@H](NC(=O)CNC(=O)[C@@H](NC(=O)[C@H](Cc3ccccc3)NC(=O)CNC(=O)CNC(=O)[C@@H](N)Cc3ccccc3)[C@@H](C)O)C(=O)N[C@@H](CCCNC(=N)N)C(=O)N[C@@H](CCCCN)C(=O)N[C@@H](CO)C(=O)N2)CCCCNC(=O)C[C@@H](C(N)=O)NC(=O)[C@H](CCC(N)=O)NC(=O)[C@H](CC(N)=O)NC1=O | 94% | – | – | –
C[C@@H](O)[C@H](N)C(=O)NCC(=O)N[C@H]1CCCCNC(=O)C[C@@H](C(=O)N[C@@H](CCCNC(=N)N)C(=O)N[C@@H](CCCCN)C(=O)N[C@H]2CCCCNC(=O)C[C@@H](C(N)=O)NC(=O)[C@H](CCC(N)=O)NC(=O)[C@H](CC(N)=O)NC(=O)[C@H](CCCCN)NC2=O)NC(=O)[C@H](CO)NC(=O)[C@H](CCCCN)NC(=O)[C@H](CCCNC(=N)N)NC1=O | – | – | – | inhibition [8]: inactive; IC50 (Nociceptin receptor): > 100 nM
CC(=O)NCCCC[C@H](NC(=O)CNC(=O)[C@@H](NC(=O)[C@H](Cc1ccccc1)NC(=O)CNC(=O)CNC(=O)[C@@H](N)Cc1ccccc1)[C@@H](C)O)C(=O)N[C@@H](CCCNC(=N)N)C(=O)N[C@@H](CCCCN)C(=O)N[C@@H](CO)C(=O)N[C@@H](CC(N)=O)C(=O)N[C@@H](CCCNC(=N)N)C(=O)N[C@@H](CCCCN)C(=O)N[C@@H](CCCCNC(C)=O)C(=O)N[C@@H](C)C(=O)N[C@@H](CC(N)=O)C(=O)N[C@@H](CCC(N)=O)C(=O)N[C@@H](CC(N)=O)C(N)=O | 99% | – | – | –
CC(=O)N[C@H]1CCCCNC(=O)C[C@@H](C(=O)N[C@@H](CCCNC(=N)N)C(=O)N[C@@H](CCCCN)C(=O)N[C@H]2CCCCNC(=O)C[C@@H](C(N)=O)NC(=O)[C@H](CCC(N)=O)NC(=O)[C@H](CC(N)=O)NC(=O)[C@H](CCCCN)NC2=O)NC(=O)[C@H](CO)NC(=O)[C@H](CCCCN)NC(=O)[C@H](CCCNC(=N)N)NC1=O | – | – | – | inhibition [8]: inactive; IC50 (Nociceptin receptor): > 100 nM
